Screens deposited in PubChem by National Center for Advancing Translational Sciences (NCATS).
Sampled rows, rich in hits. Any-hit rate of the full collection: about 1.7%.
GLP1R inv ag: GLP-1 receptor (human) inverse agonism | P43220 | HEK293 GLP-1R CRE-luciferase, luminescence, 24 h; GLP-1R form is constitutively active | Potency, µM (doses to about 38.3 µM), hits mostly inhibitors | hit rate 1.6% among 410,000 | AID 624417; note: nearly all actives have a fitted effect of over 55% in size
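Constitutively active GLP-1R drives a cAMP-responsive luciferase in stably transfected HEK293 cells; test compounds are added after overnight (12 h) attachment and left 24 hr, and signal loss in luminescence marks inhibition.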
PTHR1 agonist: agonists of human PTHR1 parathyroid hormone receptor; HEK293 GP2 PTHR1 cells, GloSensor cAMP luminescence, 1 h; Potency, µM (top dose mostly 115 µM), hits mostly activators; hit rate 0.075% among 410,000; note: nearly all actives have a fitted effect of over 55% in size
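HEK-293-derived GP2 cells expressing PTHR1 and a GloSensor cAMP reporter, 3,000/well, plated overnight, given luciferin plus IBMX (each 0.5 mM as added) for 1 h at 37 °C, then compound for 1 h at 37 °C. Luminescence was read after 15 min at room temperature.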
HEK293 tox: cytotoxicity in counter-screen for GLP-1R inverse agonists. HEK293 cAMP-luciferase reporter cells, luminescence, 24 h. AID 624418. Potency, µM (titrated, usually from 38.3 µM), actives largely listed as inhibitors. hit rate 0.13% among 410,000;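 note: loss of luciferase light is scored as toxicity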
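Here, cytotoxicity is scored as loss of luminescence. The MLSMR collection was tested on cells seeded in medium containing 10% Nu serum, with a 24 hr compound exposure preceded by 12 hours of culture.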
miR-21 reporter: raises the signal of a miR-21 reporter; Potency, µM (doses to about 38.3 µM); HeLa miR-21 FLuc reporter, luciferase, 48 h; AID 2288; 340,000 tested, under 10 active; active = well fitted rising curve with a large enough effect; inconclusive = small, poorly fitted or top-dose-only effect; inactive = no such curve, though single readings can be large or run the other way;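 further: miR-21 action dims this reporter so a rising signal means less miR-21 action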
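Luminescence from a firefly luciferase reporter carrying a miR-21 binding site downstream, stably expressed under a CMV promoter in HeLa cells that make miR-21 endogenously, reports miRNA modulation after 48 h compound exposure up to approximately 40uM final.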
Pin1 inh: blocks the human prolyl isomerase Pin1 | hit rate 0.009% among 390,000 | Potency, µM (titrated, usually from 115 µM), hits mostly inhibitors | Pin1 FP peptide displacement, HiFluor488, 10 min | Q13526; active = well fitted inhibition curve with a large enough effect in the polarisation, with a control signal flat, not every such curve was filed as active; inconclusive = small, poorly fitted or top-dose-only effect, or effect the other way, or a change in a side signal; inactive = no such curve, though single readings can be large or run the other way; the % refers to the polarisation
GLP1R ag: GLP-1 receptor (human) agonism; AID 624172; hit rate 0.007% among 380,000; Potency, µM (series often up to 45.6 µM), actives largely listed as activators; P43220; HEK293 GLP-1R CRE-luciferase, luminescence, 4-6 h; cells express a hypersensitive GLP-1R form
Of the large screens only hits and unclear results are named; the others gave an inactive call. Unless noted, calls come from the whole dose curve; as a rule, active = well fitted curve in the direction sought with a large enough effect; inconclusive = small, poorly fitted or top-dose-only effect, or another doubt; inactive = no such curve, though single readings can be large; an effect the other way counts as inactive or inconclusive.

Cc1ccc(Cl)cc1NC(=O)Cn1nnc2sc3c(c2c1=O)CCC(C(C)(C)C)C3 (stereo not given)	none (no result: GLP1R ag)
C[C@H]1CN([C@@H](C)CO)C(=O)Cc2cc(NC(=O)C3CC3)ccc2O[C@H]1CN(C)Cc1ccc(Oc2ccccc2)cc1	GLP1R inv ag 10µM (no result: miR-21 reporter)
C[C@H]1CN([C@@H](C)CO)C(=O)Cc2cc(NC(=O)CCN3CCOCC3)ccc2O[C@@H]1CN(C)Cc1ccc(Oc2ccccc2)cc1	GLP1R inv ag inconclusive (no result: miR-21 reporter)
C[C@@H]1CCCCO[C@@H](CN(C)Cc2ccc(Cl)c(Cl)c2)[C@@H](C)CN([C@H](C)CO)C(=O)c2cc(NC(=O)CCC(F)(F)F)ccc2O1	GLP1R inv ag 2.8µM (no result: miR-21 reporter, Pin1 inh)
C[C@H]1CN([C@@H](C)CO)C(=O)Cc2cc(NC(=O)CCC(F)(F)F)ccc2O[C@H]1CN(C)Cc1ccc(-c2ccccc2)cc1	GLP1R inv ag 4.5µM (no result: miR-21 reporter)
C[C@H](CO)N1C[C@H](C)[C@@H](CN(C)S(=O)(=O)c2ccccc2)OCCCC[C@H](C)Oc2ccc(NC(=O)CCC(F)(F)F)cc2C1=O	none (no result: miR-21 reporter, Pin1 inh)
C[C@H]1CN([C@@H](C)CO)C(=O)Cc2cc(NC(=O)CCC(F)(F)F)ccc2O[C@H]1CN(C)Cc1ccc(C(F)(F)F)cc1	GLP1R inv ag 10µM (no result: miR-21 reporter)
COc1ccc(CNC(=O)c2sc3nc4n(c(=O)c3c2C)CCCCC4)cc1	Pin1 inh inconclusive (no result: GLP1R ag)
O=C1OC(c2ccccc2)(c2ccccc2)N2CCN(C(=O)NCc3ccc(F)cc3)CC12 (stereo not given)	none (no result: GLP1R inv ag, PTHR1 agonist, HEK293 tox, miR-21 reporter, GLP1R ag)
CCOc1ccc(-n2c(=O)c3c(C)c(C(=O)N(C)C)sc3n(CC(=O)Nc3c(C)cc(C)cc3C)c2=O)cc1	none (no result: GLP1R ag)
Cc1ccc(C)c(N2CCN(CCCNC(=O)Cn3cccc3C(=O)c3ccccc3)CC2)c1	GLP1R inv ag 5µM
Cc1ccccc1C(=O)c1cccn1CC(=O)NCCCN1CCc2ccccc2C1	GLP1R inv ag 10µM
O=C(/C=C/c1ccccc1Cl)Nc1cccc(S(=O)(=O)NC2=NCCCCC2)c1	GLP1R inv ag 10µM, Pin1 inh inconclusive
O=C(/C=C/c1ccc(Cl)cc1Cl)Nc1cccc(S(=O)(=O)NC2=NCCC2)c1	GLP1R inv ag inconclusive
CC(C)(C)OC(=O)N(CCc1ccccc1)Cc1cccc(OCc2cccc(NC(=O)C3CCC3)c2)c1	GLP1R inv ag inconclusive (no result: miR-21 reporter)
CC(C)(C)OC(=O)N(Cc1ccccc1)Cc1ccccc1OCc1cccc(NC(=O)C2CCC2)c1	GLP1R inv ag inconclusive (no result: miR-21 reporter)
CC(C)C(=O)Nc1cccc(COc2cccc(CN(Cc3ccccc3)C(=O)OC(C)(C)C)c2)c1	GLP1R inv ag inconclusive, Pin1 inh inconclusive (no result: miR-21 reporter)
CC(C)C(=O)Nc1cccc(COc2ccc(CN(CCc3ccccc3)C(=O)OC(C)(C)C)cc2)c1	GLP1R inv ag 6.3µM (no result: miR-21 reporter)
CC(C)(C)OC(=O)N(Cc1ccccc1)Cc1ccccc1OCc1cccc(NC(=O)C2CC2)c1	GLP1R inv ag 10µM (no result: miR-21 reporter)
CC(C)(C)OC(=O)N(CCc1ccccc1)Cc1ccccc1OCc1cccc(NC(=O)C2CCC2)c1	GLP1R inv ag 8.9µM (no result: miR-21 reporter)
CC(C)(C)OC(=O)N(Cc1ccccc1)Cc1cccc(OCc2cccc(NC(=O)C3CC3)c2)c1	GLP1R inv ag 10µM (no result: miR-21 reporter)
COC(=O)C1=C(C)NC(COC(N)=O)=C(C(=O)OC(C)C)C1c1cccc(Cl)c1Cl (stereo not given)	none (no result: GLP1R inv ag, PTHR1 agonist, HEK293 tox, miR-21 reporter, Pin1 inh)
C=C(C)c1cc2c(s1)c1cnn(Cc3ccccc3F)c(=O)c1n2C	none (no result: GLP1R inv ag, PTHR1 agonist, HEK293 tox, miR-21 reporter, GLP1R ag)
Brc1ccc(-c2csc(N3CCNCC3)n2)cc1	none (no result: GLP1R inv ag, PTHR1 agonist, HEK293 tox, miR-21 reporter, GLP1R ag)
CCc1ccc(OCC(=O)Nc2ccc(S(=O)(=O)N3CCCC3)cc2)c(Br)c1	none
O=C(CNc1ccc(Br)cc1)Nc1ccc(S(=O)(=O)N2CCCC2)cc1	GLP1R inv ag 10µM (no result: miR-21 reporter)
O=C(COc1ccc(Br)cc1CO)Nc1ccc(S(=O)(=O)N2CCCCC2)cc1	GLP1R inv ag 10µM (no result: miR-21 reporter)
CCC(C(=O)Nc1cc(OC)ccc1OC)n1c(C)c2cnn(-c3ccccc3)c(=O)c2c1C (stereo not given)	none (no result: GLP1R ag)
OCCN(CCO)c1nc2ccccc2[nH]1	PTHR1 agonist inconclusive
O=c1[nH]c(=O)n(C(c2ccccc2)(c2ccccc2)c2ccccc2)cc1N(CCO)CCO	GLP1R inv ag 10µM (no result: miR-21 reporter)
CCOc1ccccc1N(CC(=O)NC1CCCCC1)C(=O)c1nsc(Cl)c1Cl	GLP1R inv ag 10µM
Fc1cccc(/C=N/NC(=S)Nc2ccccc2Cl)c1	GLP1R inv ag inconclusive, HEK293 tox 2.8µM
Cc1cccc(NC(=S)N/N=C/c2cccc(O)c2)c1C	GLP1R inv ag 7.9µM, HEK293 tox inconclusive
S=C(N/N=C/c1ccc(Cl)c(Cl)c1)Nc1ccccc1Cl	none
Cc1ccccc1NC(=S)N/N=C/c1ccc(O)cc1O	GLP1R inv ag inconclusive, HEK293 tox inconclusive
CCOCN(C(=O)Cn1cnc2cc(C)c(C)cc21)c1c(C)cccc1CC	GLP1R inv ag inconclusive (no result: GLP1R ag)
Cc1ccc2c(Sc3ccc(Cl)cc3)c(C(=O)N3CCC(C)CC3)[nH]c2c1	GLP1R inv ag 10µM (no result: GLP1R ag)
COc1ccc2c(Sc3ccc(Cl)cc3)c(C(=O)N3CCC(C)CC3)[nH]c2c1	GLP1R inv ag inconclusive, PTHR1 agonist inconclusive (no result: GLP1R ag)
CCN(Cc1ccccc1)c1ccc(Br)cn1	none (no result: GLP1R inv ag, PTHR1 agonist, HEK293 tox, miR-21 reporter, GLP1R ag)
O=C(O)c1cc(F)c(S(=O)(=O)N2CCN(S(=O)(=O)c3ccc4c(c3)OCCO4)CC2)cc1F	none (no result: GLP1R inv ag, PTHR1 agonist, HEK293 tox, miR-21 reporter, GLP1R ag)
CCN(Cc1ccccc1)c1ccc(/C=N/N=C(N)N)cc1	GLP1R inv ag 10µM, miR-21 reporter inconclusive
Cc1ccc(OCC(=O)N(Cc2ccco2)Cc2ccco2)cc1C	GLP1R inv ag inconclusive (no result: GLP1R ag)
